# Laboratory results from PMC11876601 (Molecular Systems Biology, 2025).
# Experiments:
# [1] = system: 13 PDAC cell lines; test: Phenotypic drug combination viability screen (ATPlite, 72 h), cell line panel; assay type: cell-based, human
# Method: Cell viability was assessed by measuring ATP levels to indicate metabolic activity.
# Afterward, small amounts were transferred to 384-well intermediate plates (Greiner Bio-One GmbH, Germany). […] For drug combination screening, 1000 to 5000 cells were seeded into 384-well plates (CulturPlate™, Perkin Elmer, MA, USA) using a Multidrop™ Combi Reagent Dispenser (Thermo Scientific, MA, USA) in 50 µl medium per well 24 h prior to drug treatment (seeding densities see Appendix Table S1). […] The final DMSO concentration in each well was 0.2%. […] Eight wells per plate without library drug served as negative controls, and sixteen wells per plate containing 5 µM Staurosporine served as positive controls. Control plates not containing any drug were used to correct for incubation effects, and data quality was assessed by calculation of Z-prime of positive and negative controls according to1 Z-prime=1−3SDpos+3SDneg/[…] where SD is the standard deviation. […] Dose–response curves from the experimental and hypothetical data were compared, and shifts in AUC were used to describe combination effects (AUC∆ = AUChypothetical − AUCexperimental). […] Only combinations with R^2 > 0.8 in both conditions were considered in the synergy analysis.
# [2] = system: AsPC-1 cells; test: Cell proliferation assay, chemodrug + ATR inhibitor (Incucyte confluence, 72 h);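 note: underlying read-out for every value is AsPC-1 confluence after 72 h incubation at 37 °C and 5% CO2, divided by that well's starting confluence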
structure (smiles),measurement,setting,value
CN(C)CCCOc1ccc(-c2ccc3ncc4c(c3c2)n(C2CCOCC2)c(=O)n4C)cn1 [AZD-0156],median ΣAUC∆ across all cell lines,[1],< 2%
same,"synergy with GEM (Bliss model, ΣAUC∆ > 10%)",[1],did not synergize
"Nc1ccn([C@@H]2O[C@H](CO)[C@@H](O)C2(F)F)c(=O)n1 [GEM, Gemcitabine]",Raw data (confluence at 72 h/confluence at 0 h),"[2]; Berzosertib experiment, replicate R3, titrated drug dose 300 nM",1.71
same,Raw data (confluence at 72 h/confluence at 0 h),"[2]; Berzosertib experiment, replicate R3, titrated drug dose 1000 nM",1.8
same,Raw data (confluence at 72 h/confluence at 0 h),"[2]; Berzosertib experiment, replicate R3, titrated drug dose 3000 nM",1.68
same,Raw data (confluence at 72 h/confluence at 0 h),"[2]; Berzosertib experiment, replicate R1, titrated drug dose 1000 nM",1.69
same,Raw data (confluence at 72 h/confluence at 0 h),"[2]; Berzosertib experiment, replicate R1, titrated drug dose 3000 nM",1.73
same,Raw data (confluence at 72 h/confluence at 0 h),"[2]; Berzosertib experiment, replicate R2, titrated drug dose 100 nM",1.85
same,Raw data (confluence at 72 h/confluence at 0 h),"[2]; Berzosertib experiment, replicate R2, titrated drug dose 300 nM",1.87
same,Raw data (confluence at 72 h/confluence at 0 h),"[2]; Berzosertib experiment, replicate R2, titrated drug dose 1000 nM",1.78
same,Raw data (confluence at 72 h/confluence at 0 h),"[2]; Berzosertib experiment, replicate R2, titrated drug dose 3000 nM",1.62
same,Raw data (confluence at 72 h/confluence at 0 h),"[2]; Ceralasertib experiment, replicate R1, titrated drug dose 300 nM",1.87
same,Raw data (confluence at 72 h/confluence at 0 h),"[2]; Ceralasertib experiment, replicate R1, titrated drug dose 1000 nM",1.67
same,Raw data (confluence at 72 h/confluence at 0 h),"[2]; Ceralasertib experiment, replicate R1, titrated drug dose 3000 nM",1.72
same,Raw data (confluence at 72 h/confluence at 0 h),"[2]; Ceralasertib experiment, replicate R2, titrated drug dose 1000 nM",1.83
same,Raw data (confluence at 72 h/confluence at 0 h),"[2]; Ceralasertib experiment, replicate R2, titrated drug dose 3000 nM",1.66
same,Raw data (confluence at 72 h/confluence at 0 h),"[2]; Experiment (ATRi) Elimusertib, replicate R1, drug dose (titrated) 300 nM",1.67
same,Raw data (confluence at 72 h/confluence at 0 h),"[2]; Experiment (ATRi) Elimusertib, replicate R2, drug dose (titrated) 300 nM",1.86
same,Raw data (confluence at 72 h/confluence at 0 h),"[2]; Experiment (ATRi) Elimusertib, replicate R2, drug dose (titrated) 1000 nM",1.79
same,Raw data (confluence at 72 h/confluence at 0 h),"[2]; Experiment (ATRi) Elimusertib, replicate R2, drug dose (titrated) 3000 nM",1.67
same,Raw data (confluence at 72 h/confluence at 0 h),"[2]; Experiment (ATRi) Elimusertib, replicate R3, drug dose (titrated) 300 nM",1.81
same,Raw data (confluence at 72 h/confluence at 0 h),"[2]; Experiment (ATRi) Elimusertib, replicate R3, drug dose (titrated) 1000 nM",1.69
same,Raw data (confluence at 72 h/confluence at 0 h),"[2]; Experiment (ATRi) Elimusertib, replicate R3, drug dose (titrated) 3000 nM",1.67
same,Raw data (confluence at 72 h/confluence at 0 h),"[2]; Experiment (ATRi) Gartisertib, replicate R1, drug dose (titrated) 1000 nM",1.78
same,Raw data (confluence at 72 h/confluence at 0 h),"[2]; Experiment (ATRi) Gartisertib, replicate R1, drug dose (titrated) 3000 nM",1.7
same,Raw data (confluence at 72 h/confluence at 0 h),"[2]; Gartisertib experiment, replicate R3, titrated drug dose 1000 nM",1.87
same,Raw data (confluence at 72 h/confluence at 0 h),"[2]; titrated drug dose 100 nM, replicate R3, experiment (ATRi) Ceralasertib, AsPC-1, 72 h",1.81
same,Raw data (confluence at 72 h/confluence at 0 h),"[2]; titrated drug dose 300 nM, replicate R3, experiment (ATRi) Ceralasertib, AsPC-1, 72 h",1.81
same,Raw data (confluence at 72 h/confluence at 0 h),"[2]; titrated drug dose 3000 nM, replicate R3, experiment (ATRi) Ceralasertib, AsPC-1, 72 h",1.61
